# Test results: patent US20180177890A1, “LIGAND-CYTOTOXIC DRUG CONJUGATE, PREPARATION METHOD THEREOF, AND USE THEREOF” (priority 2015, published 2018)
# B1: 39: Nimotuzumab-propanethiol 39c coupled with drug-linker compound 4; average y=2.2 (conjugate, chains of the INN, looked up)
# heavy: QVQLQQSGAEVKKPGSSVKVSCKASGYTFTNYYIYWVRQAPGQGLEWIGGINPTSGGSNFNEKFKTRVTITADESSTTAYMELSSLRSEDTAFYFCTRQGLWFDSDGRGFDFWGQGTTVTVSSASTKGPSVFPLAPSSKSTSGGTAALGCLVKDYFPEPVTVSWNSGALTSGVHTFPAVLQSSGLYSLSSVVTVPSSSLGTQTYICNVNHKPSNTKVDKKV[omitted - human IgG1 Fc]
# light: DIQMTQSPSSLSASVGDRVTITCRSSQNIVHSNGNTYLDWYQQTPGKAPKLLIYKVSNRFSGVPSRFSGSGSGTDFTFTISSLQPEDIATYYCFQYSHVPWTFGQGTKLQITRTVAAPSVFIFPPSDEQLKSGTASVVCLLNNFYPREAKVQWKVDNALQSGNSQESVTEQDSKDSTYSLSSTLTLSKADYEKHKVYACEVTHQGLSSPVTKSFNRGEC
# modifications: drug-linker compound 4 via propanethiol, DAR 2.2
# B2: 40: Nimotuzumab-propanethiol 39c coupled with drug-linker compound 8; average y=2.2 (conjugate, chains of the INN, looked up)
# heavy: B1 heavy
# light: B1 light
# modifications: propanethiol-linked drug-linker compound 8, DAR 2.2
# B3: 41: Nimotuzumab-propanethiol 39c coupled with drug-linker compound 26; average y=2.3 (conjugate, chains of the INN, looked up)
# heavy: B1 heavy
# light: B1 light
# modifications: propanethiol-linked drug-linker compound 26, DAR 2.3
# B4: 48: Nimotuzumab-propanethiol 39c coupled with drug-linker compound 45; average y=2.0 (conjugate, chains of the INN, looked up)
# heavy: B1 heavy
# light: B1 light
# modifications: propanethiol-linked drug-linker compound 45, DAR 2.0
# notes: Nimotuzumab-propanethiol 39c coupled with drug-linker compound 45; average y=2.0
# Experiments:
# [1] = system: HCC827 tumor cells; experiment: In vitro tumor cell proliferation inhibition test of antibody-drug conjugates against EGFR target, HCC827; format: cell-based, human; conditions: HCC827, 76 hours incubation, CCK-8
# Experimental: The objective of this experiment is to test the in vitro proliferation inhibition effect of the antibody-drug conjugate against EGFR target according to the present invention on HCC827 tumor cells (non-small cell lung cancer cells, Chinese Academy of Sciences cell bank, No. #TCHu153). The cells were treated with different concentrations of the compound in vitro. After 76 hours of incubation, cell proliferation was detected by CCK-8 reagent (Cell Counting Kit-8, Dojindo, No. CK04), and the activity of the compound in vitro was evaluated according to the IC50 value.
# According to the test method of test example 1, the test cells were HCC827, and the cell culture medium was RPMI1640 medium (Invitrogen) containing 10% FBS (v/v).
# [2] = system: human non-small cell lung cancer HCC827; experiment: Efficacy test on HCC827 transplanted tumor in nude mice; format: in vivo; conditions: for tumor inhibition rate: multi-dose intraperitoneal injection, day 38
# Experimental: In this test, Nude mice were used as the test animals to evaluate the efficacy of the ADC compounds 39 and 40 of the present invention on transplanted tumors of human non-small cell lung cancer HCC827 in nude mice after multi-dose intraperitoneal injection.
# Tumor cell transplantation was performed after the nude mice were adapted to the laboratory environment for three days. HCC827 cells were inoculated subcutaneously in the right rib of nude mice (4×10^6+50% matrigel/mouse). On day 21 after inoculation, the drug was administered when the tumor grew to 209.41+25.93 mm^3 (dl).
# Mice were measured for tumor volume twice a week, the body weight of the nude mice was weighed and the data were recorded.
# Excel statistical software: mean value is calculated as average; SD is calculated as STDEV; SEM is calculated as STDEV/SQRT; P value between different groups is calculated as TTEST.
# Tumor volume (V) is calculated as: V=1/2×Llength×Lshort^2 Relative volume (RTV)=VT/V0 Tumor Inhibition Rate (%)=(CRTV−TRTV)/CRTV (%) wherein V0 and VT represent the tumor volume at the beginning of the experiment and at the end of the experiment, respectively. CRTV and TRTV represent the relative tumor volume of blank control group (Blank) and test group at the end of the experiment, respectively.
Molecule,IC50 [1],tumor inhibition rate ([2]; 0.05 mg/mouse),tumor inhibition rate ([2]; 0.025 mg/mouse),tumor inhibition rate ([2]; 0.1 mg/mouse),"anti-tumor effect in three different dose groups ([2]; 0.025, 0.05, 0.1 mg/mouse)"
B1,0.353 nM,62.78%,,,
B2,0.255 nM,86.8%,49.20%,93.41%,dose dependent
B3,0.451 nM,,,,
B4,0.993 nM,,,,
